Structures are written as SMILES.

Chains of the proteins cited; added tags and fusions are not shown.
UniProt O60563, whole entry: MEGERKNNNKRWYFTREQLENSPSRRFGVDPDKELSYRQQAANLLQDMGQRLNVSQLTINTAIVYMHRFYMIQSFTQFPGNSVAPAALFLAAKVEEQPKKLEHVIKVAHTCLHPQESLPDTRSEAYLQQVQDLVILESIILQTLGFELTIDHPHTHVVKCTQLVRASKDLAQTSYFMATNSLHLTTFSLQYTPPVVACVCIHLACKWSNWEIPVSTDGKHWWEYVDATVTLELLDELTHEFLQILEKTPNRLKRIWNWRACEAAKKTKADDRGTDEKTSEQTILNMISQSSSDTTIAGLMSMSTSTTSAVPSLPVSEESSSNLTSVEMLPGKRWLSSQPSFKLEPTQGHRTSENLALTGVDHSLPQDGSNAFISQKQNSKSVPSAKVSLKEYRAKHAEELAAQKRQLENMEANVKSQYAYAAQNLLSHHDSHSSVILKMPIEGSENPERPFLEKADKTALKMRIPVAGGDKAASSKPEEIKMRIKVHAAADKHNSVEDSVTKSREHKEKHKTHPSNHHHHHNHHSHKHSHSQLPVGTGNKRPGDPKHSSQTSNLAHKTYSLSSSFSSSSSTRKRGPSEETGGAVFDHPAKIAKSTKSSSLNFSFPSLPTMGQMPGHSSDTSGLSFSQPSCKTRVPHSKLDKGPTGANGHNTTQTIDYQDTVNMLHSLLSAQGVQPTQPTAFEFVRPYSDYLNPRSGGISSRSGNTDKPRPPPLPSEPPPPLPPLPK
UniProt P50750, whole entry: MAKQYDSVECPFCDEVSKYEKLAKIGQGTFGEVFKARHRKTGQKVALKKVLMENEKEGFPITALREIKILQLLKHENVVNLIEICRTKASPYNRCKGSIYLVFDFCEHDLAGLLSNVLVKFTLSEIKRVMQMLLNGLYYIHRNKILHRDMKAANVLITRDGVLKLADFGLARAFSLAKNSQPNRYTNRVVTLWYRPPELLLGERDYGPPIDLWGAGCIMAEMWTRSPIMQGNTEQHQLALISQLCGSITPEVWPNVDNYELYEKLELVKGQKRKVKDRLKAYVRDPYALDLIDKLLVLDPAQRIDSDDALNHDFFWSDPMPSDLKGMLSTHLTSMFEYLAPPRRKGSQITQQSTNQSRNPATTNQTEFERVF

The target of the assay is Cyclin-T1/Cyclin-dependent kinase 9 (Homo sapiens, UniProt O60563+P50750). As to the kind of experiment: Inhibition of CDK9/cyclin T1 (unknown origin) using cdk7tide peptide as substrate.

The IC50 is the concentration that gives 50% inhibition. A higher IC50 goes with weaker potency. In turn, `COc1cc(F)ccc1-c1ccnc(NC(=O)[C@H]2CCC[C@@H](NC(C)=O)C2)c1` [US9067888, 33] displayed an IC50 of 3 nM.

These data come from BindingDB's records for doi:10.1021/acs.jmedchem.6b00150 (University of Nebraska Medical Center, 2016).
